Data set [1] has as its system Drosophila melanogaster. Nature of the data set: Drosophila melanogaster microinjection assay. The data set is classed as in vivo. Conditions: intrathoracic injection, 50 nL, adult female flies, lethality at 24 h; three dose-response curves, ± SEM. On the procedure:
The insecticidal activity of the chemically synthesized 1a and analogues thereof were determined by injection into adult female D. melanogaster aged 3–5 days (mass 0.7–0.9 mg) as described previously. Analogues were dissolved in water and intrathoracically injected using pulled glass capillaries at a volume of 50 nL per fruit fly, and the results were compared against an equivalent injection volume of water alone. All injections were performed in the morning or early afternoon. At 24 h post-injection flies were monitored for lethality. Dose–response curves were constructed using 7–10 doses per analogue (each dose tested in eight flies) and three separate dose–response curves were constructed for each analogue. The lethality in the groups receiving the analogues were adjusted using the respective control group lethality using the Henderson-Tilton formula [20]. The median lethal dose (LD50) of each analogue was calculated based on the three dose–response curves using GraphPad Prism 8.0 [21]. One-way ANOVA followed by Dunnett’s multiple comparison test were used to compare LD50 values.

Data set [2] has as its system A. baumannii ATCC 19606. Nature of the data set: MIC dilution assay. It is filed as cell-based. The conditions noted are these: selectivity. How it is done:
Compounds were serially diluted in cation-adjusted Mueller Hinton Broth (CaMHB) twofold across the wells of non-binding surface 96-well plates (Corning), plated in duplicate. Bacteria (strains listed in Table 1) were cultured in CaMHB at 37 °C overnight, then diluted 40-fold and incubated at 37 °C for a further 2–3 h. The resultant mid-log phase cultures were diluted in CaMHB and added to each well of the compound-containing 96-well plates to give a final cell density of 5 × 10^5 CFU/mL, and a final compound concentration range of 0.06–128 μg/mL. The plates were covered and incubated at 37 °C for 20 h. Inhibition of bacterial growth was determined visually, where the minimum inhibitory concentration (MIC) was recorded as the lowest compound concentration that yielded no visible growth.

Data set [3] relates to HEK293 cells. The conditions noted are these: HEK293, 24 h, resazurin; cited from earlier work. On the procedure:
Table 2 Summary of bioassay data for synthetic Mp1a and analogues, including effective concentration (EC50) for activation of F11 cells, concentrations that caused 50% inhibition (IC50) for inhibition of larval development of H. contortus; median lethal dose (LD50) for lethal insecticidal effects on D. melanogaster; concentrations required to induce 50% cell death (CC50) for effects on viability o | column: Cytotoxicity (CC50 µM) ^b
(In general: Alamar Blue is a resazurin reagent that responds to reducing activity.)

The test system of data set [4] is human red blood cells. Conditions: cited from earlier work. On the procedure: Table 2 Summary of bioassay data for synthetic Mp1a and analogues, including effective concentration (EC50) for activation of F11 cells, concentrations that caused 50% inhibition (IC50) for inhibition of larval development of H. contortus; median lethal dose (LD50) for lethal insecticidal effects on D. melanogaster; concentrations required to induce 50% cell death (CC50) for effects on viability o | column: Hemolysis (HC50 µM) ^b

Data set [5] has as its system F11 cells. The data set can be described thus: FLIPR calcium assay, activation of F11 cells. It is filed as cell-based. On the procedure:
F11 cells were cultured as previously described. Cells were maintained on Ham’s F12 media supplemented with 10% fetal bovine serum (FBS), 100 µM hypoxanthine, 0.4 µM aminopterin, and 16 µM thymidine (Hybri-MaxTM, Sigma Aldrich, North Ryde, Australia). Then, 384-well imaging plates (Corning) were seeded 48 h prior to imaging resulting in 90–95% confluence at imaging. Cells were incubated for 30 min with the Calcium 4 assay component A according to the manufacturer’s instructions (Molecular Devices, Sunnyvale, CA, USA) in physiological salt solution (PSS; composition in mM: 140 NaCl, 11.5 D-glucose, 5.9 KCl, 1.4 MgCl2, 1.2 NaH2PO4, 5 NaHCO3, 1.8 CaCl2, 10 HEPES) at 37°C. Fluorescence was measured using a fluorescent imaging plate reader (FLIPR^TETRA) equipped with a CCD camera (Excitation: 470–490 nm, Emission: […]) (Molecular Devices, Sunnyvale, CA, USA). Signals were read every second for 10 s before, and 300 s after the addition of peptides in PSS supplemented with 0.1% bovine serum albumin. All data are the mean ± SEM of assays performed in triplicate. Maximum–minimum fluorescence in the 300 s period after peptide addition was recorded as the response. Concentration–response data were fitted with a four-parameter Hill equation (variable slope) using GraphPad Prism 8 to obtain effective concentration (EC50) values.

Data set [6] deals with A. baumannii ATCC 19606. The conditions noted are these: strain not stated at b53, analogues 1-4 previously assayed; cited from earlier work.
Data set [7] deals with Haemonchus contortus. It is filed as cell-based. On the procedure: Sheep were infected with H. contortus Kirby isolate (field isolate from the University of New England Kirby Research Farm in 1986; susceptible to all commercial anthelmintics) and housed at the Commonwealth Scientific and Industrial Research Organisation (CSIRO) FD McMaster Laboratory, Armidale, NSW. All animal procedures were approved by the FD McMaster Animal Ethics Committee, CSIRO (Approval Number AEC 17/12, approval date 15.6.2017). Eggs were prepared from overnight fecal collection as described. In brief, feces were filtered through mesh filters, settled, and supernatant removed by vacuum. Eggs were recovered by density centrifugation using 10 and 25% (w/v) sucrose solutions, centrifuged at 650× g for 7 min. Eggs were recovered from the interface of the two sucrose layers, rinsed with distilled water, sterilized with bleach, rinsed again, and diluted to 4500 eggs/mL. Tylosin tartrate (800 μg/mL) and amphotericin B (25.0 μg/mL) were added, and eggs were used immediately for larval development assays.
Assays were conducted using 96-well microtitre plates, with each well containing 50 μL of 2% agar, 20 μL of egg solution and 20 μL of peptide solution in water. […] Larvae that had developed to the infective L3 stage were counted, and the numbers in treated assay wells were expressed as a percentage of the number of infective L3 stage larvae in multiple control wells. […]

For orientation: EC50 means the concentration giving half of the maximal effect. One may read the IC50 as the concentration that gives 50% inhibition. For the compound `CC[C@H](C)[C@H](N)C(=O)N[C@@H](CC(=O)O)C(=O)N[C@@H](Cc1c[nH]c2ccccc12)C(=O)N[C@@H](CCCCN)C(=O)N[C@@H](CCCCN)C(=O)N[C@H](C(=O)N[C@@H](CC(=O)O)C(=O)N[C@@H](Cc1c[nH]c2ccccc12)C(=O)N[C@@H](CCCCN)C(=O)N[C@@H](CCCCN)C(=O)N[C@H](C(=O)N[C@@H](CO)C(=O)N[C@@H](CCCCN)C(=O)N[C@@H](CCCCN)C(=O)N[C@H](C(=O)N[C@@H](CSSC[C@H](NC(=O)[C@@H](NC(=O)CNC(=O)[C@H](CCCCN)NC(=O)[C@H](CO)NC(=O)[C@@H](NC(=O)[C@H](CC(C)C)NC(=O)CNC(=O)[C@@H](NC(=O)[C@@H](N)CC(C)C)[C@@H](C)CC)C(C)C)[C@@H](C)O)C(=O)N[C@H](C(=O)N[C@@H](CC(C)C)C(=O)N[C@H](C(=O)N[C@@H](CCCCN)C(=O)N[C@H](C(=O)N[C@H](C(=O)N[C@@H](CSCNC(C)=O)C(=O)N[C@@H](CCCCN)C(=O)N[C@@H](CCCCN)C(=O)N[C@H](C(=O)N[C@@H](CC(C)C)C(=O)N[C@@H](CCCCN)C(=O)N[C@@H](CCC(N)=O)C(N)=O)C(C)C)C(C)C)[C@@H](C)O)C(C)C)C(C)C)C(=O)N[C@@H](CCCCN)C(=O)N[C@H](C(=O)N[C@@H](CCSC)C(=O)N[C@@H](CC(C)C)C(=O)N[C@@H](CCCCN)C(=O)N[C@@H](C)C(=O)N[C@@H](CSCNC(C)=O)C(=O)N[C@@H](CCCCN)C(=O)N[C@@H](Cc1ccccc1)C(=O)N[C@@H](CC(C)C)C(N)=O)C(C)C)[C@@H](C)O)C(C)C)C(C)C` [Analogue 2b], the “Insecticidal Activity (LD50)” value in data set [1] is given as above 600 pmol/g. Further, the “Fold by which MIC against A. baumannii is lower than EC50 against F11 cells” value in data set [2] is “approximately 1500 fold”. The “Cytotoxicity (CC50)” value in data set [3] is recorded as above 10 µM. Besides, the “Hemolysis (HC50)” value in data set [4] is recorded as above 10 µM. Further, the “Concentration at which cytolysis (rapid increase in fluorescence followed by decrease to or below baseline) was observed” value in data set [5] (F11 cells, FLIPR) stood at 100 µM. In addition, in data set [5] (F11 cells, FLIPR, Calcium 4 dye, max-min fluorescence in 300 s after peptide addition, PSS with 0.1% BSA, mean ± SEM, triplicate, read-out: Neuronal Cell Activation (EC50)), the EC50 was 38.5 ± 2.3 µM. For the same compound, in data set [5] (ratio of EC50 values), the “Fold less active than native Mp1a (1a), F11 cell activation” value is reported as 45 fold. Also, the minimum inhibitory concentration in data set [6] is 0.025 to 0.1 µM. For the same compound, the IC50 in data set [7] (H. contortus Kirby isolate, egg to infective L3, 6 days, 26 °C, three experiments of duplicate assays, ± SEM, for 1a the component at higher concentrations (about 90% of population), read-out: Anthelmintic Activity (IC50), inhibition of larval development) turned out to be 65.6 ± 14.7 µM. For the same compound, the “Fold less active than 1a, anthelmintic activity” value in data set [7] (ratio of IC50 values, larval development) is on record as “four- to eightfold”.
